In patent US8728439B2, “System and method for indirectly measuring calcium ion efflux” (Celtrast LLC, priority 2008, dated 2014):

How the values were obtained:
[1] = Heart rate post-MnCl2 infusion; conditions: control group, MnCl2 alone
[2] = single MnCl2 dose of 190±2 nmoles/g total body weight; cited from earlier work
[3] = Absolute Mn content in heart tissue by ICP-MS; format: in vivo, C57Bl/6 mice; conditions: control group, MnCl2 alone
Description: As previously stated, all mice were anesthetized during the experimental procedures: contrast agent infusion, drug administration, and imaging sessions. The mice were allowed to recover between procedures so as to […] the time each mouse was under anesthesia to 2.5 hours, which was then followed by a recovery period of at least 2.5 hours. This protocol minimized any physiological effects caused by the anesthesia; imaging time points selected for each mouse followed these guidelines. In addition, efforts were made to alter the time interval between successive data points so as not to bias the results with potential anesthesia effects. […] A subgroup of randomly selected animals (n=16) was sacrificed immediately after imaging to measure absolute Mn content in heart tissue (n=14) and blood samples (n=6) by inductively coupled plasma-mass spectrometry (ICP-MS) analysis ([…] Ltd., North Vancouver, BC, Canada). The samples were harvested approximately one hour after the initiation of the final T1-map. This time delay was due to the length of time required to acquire the T1-map, and the time required to harvest the samples, and remained constant for all of the samples. […] No statistically significant differences between the groups were found following linear least-square fitting to the data. […]

NCX = NCX (Mus musculus, UniProt P70414); experiment: MEMRI T1-mapping of LV Wall ΔR1 washout (Mn2+ efflux) after MnCl2 infusion, with or without NCX inhibitor; conditions: control group
[4] = Blood Mn concentration by elemental analysis (ICP-MS); conditions: control group, MnCl2 alone; t=5±1.8 hrs post-MnCl2 infusion
[5] = MnCl2 alone, fit excluding data for t<1 hour

manganese chloride [MnCl2]
average post-MnCl2 infusion heart rate [1]: 456±30 bpm
cardiotoxic effects [2]: not to cause cardiotoxic effects
absolute cardiac Mn concentration ([3]; 2 hour time point): 20.9 ± 9.7 µg/g
absolute cardiac Mn concentration ([3]; 4 hours post-MnCl2 infusion): approximately 11.9±0.3 μg/g
ΔR1,0 (NCX; 190 nmoles/g BW MnCl2 alone, fit to all data points): 3.4 ± 0.3 s⁻¹
LV Wall ΔR1 half-life (NCX; 190 nmoles/g BW MnCl2 i.v. alone, fit to all data points): 3.4 ± 0.6 h and 3.4 h
average LV Wall ΔR1 (NCX; MnCl2 alone, 4.9-5.9 hours post-MnCl2 infusion): 1.27 ± 0.28 s⁻¹
LV Wall ΔR1 half-life (NCX; [5]): 3.2 ± 0.5 h
ΔR1,0 (NCX; [5]): 3.5 ± 0.8 s⁻¹
blood Mn concentration [4]: 0.19 ± 0.05 mg/mL

Where “and” joins values, the source holds several entries; their conditions need not be identical. Equal entries are not always repeated.
